The values below come from US8247403B2, “Benzoxazepine derivatives and use thereof” (Takeda Pharmaceutical Company Limited, priority 2007, dated 2012).

By UniProt entry, the sequences of proteins in these tests, tags left out. Residues count along the entry.
UniProt P28335, 33-458 I156V/N158S/I160V limits assumed: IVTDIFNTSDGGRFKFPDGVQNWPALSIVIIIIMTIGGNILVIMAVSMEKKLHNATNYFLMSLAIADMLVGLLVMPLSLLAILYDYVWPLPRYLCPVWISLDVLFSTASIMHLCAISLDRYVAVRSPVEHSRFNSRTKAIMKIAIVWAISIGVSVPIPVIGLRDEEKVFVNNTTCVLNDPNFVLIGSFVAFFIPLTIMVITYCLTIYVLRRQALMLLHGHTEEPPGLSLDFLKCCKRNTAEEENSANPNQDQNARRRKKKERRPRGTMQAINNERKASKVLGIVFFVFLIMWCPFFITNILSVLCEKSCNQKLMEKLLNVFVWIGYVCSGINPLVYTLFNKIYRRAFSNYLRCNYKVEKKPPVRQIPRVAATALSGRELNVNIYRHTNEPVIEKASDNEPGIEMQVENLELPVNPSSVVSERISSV

The experiment has as its target serotonin 5-HT2C receptor (Homo sapiens, UniProt P28335, I156V/I160V/N158S). The experiment in a line: cell-based. The conditions noted are these: CHO, read-out: ratio to maximum response by 5-HT (1 μM).

Where a name gives a salt, the structure may show the parent alone.

With `CC(C)c1cccc2c1OCCNC2` [Example 54, 9-(1-methylethyl)-2,3,4,5-tetrahydro-1,4-benzoxazepine hydrochloride], the activation at 1 µM turned out to be 107%.
